The source of these data is patent publication US7985733B1, “Buffer-based method for preparing bivalirudin drug product” (The Medicines Company, priority 2010, dated 2011).

This data set in a line: Addition of base to a bivalirudin salt solution: precipitate as pH passes through the pI. The format is physicochemical. Conditions: 2.0 g solid bivalirudin salt in 40 mL sterile WFI. Here is the method: Base was added to a bivalirudin salt solution to confirm the formation of a bivalirudin precipitate as the pH of the solution passes through the pI of bivalirudin.
Solid bivalirudin salt (2.0 g) was added to 40 mL of sterile WFI to form a bivalirudin salt solution having a pH of 1.81. Sodium hydroxide (1 N) was added drop-wise to the bivalirudin salt solution and the pH was monitored. Qualitative observations were recorded for the precipitate that formed, as described in Table 11.

Take `CC[C@H](C)[C@H](NC(=O)[C@H](CCC(=O)O)NC(=O)[C@H](CCC(=O)O)NC(=O)[C@H](Cc1ccccc1)NC(=O)[C@H](CC(=O)O)NC(=O)CNC(=O)[C@H](CC(N)=O)NC(=O)CNC(=O)CNC(=O)CNC(=O)CNC(=O)[C@@H]1CCCN1C(=O)[C@H](CCCNC(=N)N)NC(=O)[C@@H]1CCCN1C(=O)[C@H](N)Cc1ccccc1)C(=O)N1CCC[C@H]1C(=O)N[C@@H](CCC(=O)O)C(=O)N[C@@H](CCC(=O)O)C(=O)N[C@@H](Cc1ccc(O)cc1)C(=O)N[C@@H](CC(C)C)C(=O)O.O=C(O)C(F)(F)F` [Bivalirudin salt solution, D-Phenylalanyl-L-Prolyl-L-Arginyl-L-Prolyl-Glycyl-Glycyl-Glycyl-Glycyl-L-Asparagyl-Glycyl-L-Aspartyl-L-Phenylalanyl-L-Glutamyl-L-Glutamyl-L-Isoleucyl-L-Prolyl-L-Glutamyl-L-Glutamyl-L-Tyrosyl-L-Leucine trifluoroacetate salt]: the “pH of bivalirudin salt solution” value stood at 1.81.
